Earlier results as cited in patent US20110288128A1.
This is a selection: effects in other tests are not listed, and their absence says nothing.

Key:
[1] = Paradis et al. 2002
[2] = swallowed drug
[3] = SUFENTA and Actiq package inserts

Structure (SMILES)	pKa [1]	GI bioavailability [2]	protein binding [3]
CCC(=O)N(c1ccccc1)C1CCN(CCc2ccccc2)CC1	8.43	30-40%	–
CCC(=O)N(c1ccccc1)C1(COC)CCN(CCc2cccs2)CC1	8.01	–	91-93%
